Among the data in US7557137B2, “Gamma-lactams as beta-secretase inhibitors” (Bristol-Myers Squibb Company, priority 2002, dated 2009) are IC50 values, retold here.

By UniProt entry, the sequences of proteins in these tests, tags left out. Residues count along the entry.
UniProt P56817, 75-416 limits assumed: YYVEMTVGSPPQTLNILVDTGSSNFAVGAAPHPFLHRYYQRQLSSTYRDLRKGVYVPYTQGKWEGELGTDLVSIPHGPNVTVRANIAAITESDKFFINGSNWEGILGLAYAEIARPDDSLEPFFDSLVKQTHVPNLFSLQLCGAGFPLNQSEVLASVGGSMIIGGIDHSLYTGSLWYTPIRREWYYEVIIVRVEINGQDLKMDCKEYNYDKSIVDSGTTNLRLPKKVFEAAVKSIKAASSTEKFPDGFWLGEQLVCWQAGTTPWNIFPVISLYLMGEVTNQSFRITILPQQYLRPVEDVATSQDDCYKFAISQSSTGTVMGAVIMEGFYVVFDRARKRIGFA

In the assay the target is BACE enzyme (Homo sapiens, UniProt P56817). Description: BACE enzyme inhibition, fluorescence-quenched peptide substrate MCA-EVNLDAEFK(DNP). Format: biochemical. The conditions noted are these: read-out: Activity Rating (based on IC50 values); 50 mM acetate, pH 4.5, 0.25 mg/ml bovine serum albumin, 2.5% DMSO; tested form: TFA.

The term IC50 denotes the midpoint of a concentration-inhibition curve. For `CC[C@H](C)[C@@]1(NC(C)=O)CCN([C@@H](CCc2ccccc2)C(=O)N[C@@H](Cc2ccccc2)[C@H](O)CNCc2cc(F)cc(C(F)(F)F)c2)C1=O`, the concentration for half-maximal inhibition (IC50) was less than 100 nM.
The result for `CC[C@H](C)[C@@]1(NC(C)=O)CCN([C@@H](CCc2ccccc2)C(=O)N[C@@H](Cc2ccccc2)[C@H](O)CNCc2cccc(C(F)(F)F)c2)C1=O` reads less than 100 nM.
